{
  "sequences": {"note": "Amino acid sequences for entries named in this document (tags omitted). A change or cut given only in a name is not applied to a line headed by its entry.", "UniProt A0R2W9": "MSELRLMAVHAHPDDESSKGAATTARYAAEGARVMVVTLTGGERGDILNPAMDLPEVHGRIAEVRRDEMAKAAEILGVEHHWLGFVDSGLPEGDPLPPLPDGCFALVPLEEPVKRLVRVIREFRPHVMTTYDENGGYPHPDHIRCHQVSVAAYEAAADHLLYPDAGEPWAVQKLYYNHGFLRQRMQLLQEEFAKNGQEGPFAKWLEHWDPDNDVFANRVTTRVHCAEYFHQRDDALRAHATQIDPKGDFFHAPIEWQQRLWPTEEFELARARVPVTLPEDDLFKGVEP"},
  "source": "patent US20050124021A1",
  "about": "(priority 2000, published 2005)",
  "key": {"[1]": {"system": "deacetylase activity of M. smegmatis mutant 49 extract", "assay": "Deacetylase activity (GlcN-Ins production) in centrifuged cell extracts, mutant 49", "settings": "100 μM GlcNAc-Ins added"}, "[2]": {"system": "deacetylase activity of M. smegmatis mc^2155 extract", "assay": "Deacetylase activity (GlcN-Ins production) in centrifuged cell extracts, strain mc^2155", "settings": "100 μM GlcNAc-Ins added"}, "M. smegmatis mutant 49": {"system": "M. smegmatis mutant 49", "assay": "Time course of MSH and precursors in mutant 49 cultured with supplements", "type": "cell-based", "settings": "17 μM GlcNAc-Ins"}, "[3]": {"system": "MSH-deficient strain 49 (M. smegmatis)", "assay": "Concentration dependence of GlcNAc-Ins uptake and use for MSH synthesis", "settings": "23 hr, 37° C."}, "[4]": {"target": "mycothiol S-conjugate amidase (Mycolicibacterium smegmatis, UniProt A0R2W9)", "assay": "Test of purified mycothiol S-conjugate amidase for deacetylase activity", "settings": "100 μM substrate, n=4"}, "[5]": {"settings": "4 μM GlcNAc-Ins in Middlebrook 7H9 medium"}, "[6]": {"settings": "8 μM GlcNAc-Ins in Middlebrook 7H9 medium"}, "[7]": {"settings": "21 μM GlcNAc-Ins in Middlebrook 7H9 medium"}},
  "data": [
    {"substance": "N-acetyl-1-D-myo-inosityl-2-amino-2-deoxy-α-D-glucopyranoside", "values": [
      {"measurement": "Rate of GlcN-Ins production", "setting": "[1]", "value": "16.4±1.4 pmol min^−1 mg of protein^−1"},
      {"measurement": "Net rate increase of GlcN-Ins production over background", "setting": "[2]", "value": "13.6±0.5 pmol min^−1 mg of protein^−1"},
      {"measurement": "Level of GlcN-Ins in cells", "setting": "M. smegmatis mutant 49; 2 hr", "value": "0.025 μmole per gm of residual dry weight"},
      {"measurement": "MSH content, fold less than the GlcNAc-Ins content", "setting": "M. smegmatis mutant 49; 2 hr", "value": "about 10 fold"},
      {"measurement": "Concentration of GlcNAc-Ins in cells from the supplemented medium", "setting": "M. smegmatis mutant 49; 48 hours", "value": "more than 100 fold"},
      {"measurement": "Level of GlcN-Ins in cells", "setting": "M. smegmatis mutant 49; 48 hr", "value": "0.1 μmole per gm of residual dry weight"},
      {"measurement": "MSH level relative to that measured for the parent strain", "setting": "M. smegmatis mutant 49; 48 hr", "value": "about 60%"},
      {"measurement": "GlcNAc-Ins content of cells", "setting": "M. smegmatis mutant 49; first measurement (2 hr)", "value": "2.9 μmole per gm of residual dry weight"},
      {"measurement": "Cysteine level of cells", "setting": "M. smegmatis mutant 49; unchanged over the experiment", "value": "0.36±0.08 μmol per gm of residual dry weight"},
      {"measurement": "GlcN-Ins content of cells", "setting": "[3]; [5]", "value": "<0.02 μmol [g of RDW]^−1"},
      {"measurement": "GlcNAc-Ins content of cells", "setting": "[3]; [5]", "value": "0.39 μmol [g of RDW]^−1"},
      {"measurement": "MSH content of cells", "setting": "[3]; [5]", "value": "0.47 μmol [g of RDW]^−1"},
      {"measurement": "GlcN-Ins content of cells", "setting": "[3]; [6]", "value": "0.026 μmol [g of RDW]^−1"},
      {"measurement": "GlcNAc-Ins content of cells", "setting": "[3]; [6]", "value": "0.80 μmol [g of RDW]^−1"},
      {"measurement": "MSH content of cells", "setting": "[3]; [6]", "value": "0.91 μmol [g of RDW]^−1"},
      {"measurement": "GlcN-Ins content of cells", "setting": "[3]; [7]", "value": "0.047 μmol [g of RDW]^−1"},
      {"measurement": "GlcNAc-Ins content of cells", "setting": "[3]; [7]", "value": "1.4 μmol [g of RDW]^−1"},
      {"measurement": "MSH content of cells", "setting": "[3]; [7]", "value": "2.1 μmol [g of RDW]^−1"},
      {"measurement": "Activity with GlcNAc-Ins as substrate", "setting": "[4]", "value": "< 1 nmol min^−1 mg of protein^−1"}
    ]}
  ]
}
